# According to PubChem BioAssay AID602296 (Broad Institute, 2012):
# The entries are a selection whose mix differs from that of the whole data set. Records with an inconclusive call do not appear. The source made the active and inactive calls.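 The calls were made as follows: active = fitted activation curve crossing 40% at a concentration no higher than the sample's top valid tested dose; inconclusive = flat fitted curve at 30% to 70% activation, or poor curve fit; inactive = signal decrease, flat curve within 30%, or the rest.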
# Assay: sustained heat shock response element induction – cell-based, mouse, luciferase, cherry-pick, dose, confirmation (AID 602296);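 also: test compounds applied by themselves with no MG132 co-treatment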
# Details: NIH3T3-HGL HSF-1 response element luciferase, 48 h; at 26 µM (top of the series)
row,SMILES,activation
1,CP(=O)(OCCOc1ccccc1)OCCOc1ccccc1,inactive: 8.7%
